Measured values as given in PubChem BioAssay AID463254 (National Center for Advancing Translational Sciences (NCATS), 2010).
Only a part is listed here, and it is no random draw. Calls of active or inactive are those of the source. The call rests on the fitted dose curve; in most records, active means well fitted inhibition curve with a large enough effect; inconclusive means small, poorly fitted or top-dose-only effect, or effect the other way; inactive means flat fitted curve, though single readings scatter.

Amino acid sequences for entries named in this document (tags omitted).
UniProt O75604, whole entry: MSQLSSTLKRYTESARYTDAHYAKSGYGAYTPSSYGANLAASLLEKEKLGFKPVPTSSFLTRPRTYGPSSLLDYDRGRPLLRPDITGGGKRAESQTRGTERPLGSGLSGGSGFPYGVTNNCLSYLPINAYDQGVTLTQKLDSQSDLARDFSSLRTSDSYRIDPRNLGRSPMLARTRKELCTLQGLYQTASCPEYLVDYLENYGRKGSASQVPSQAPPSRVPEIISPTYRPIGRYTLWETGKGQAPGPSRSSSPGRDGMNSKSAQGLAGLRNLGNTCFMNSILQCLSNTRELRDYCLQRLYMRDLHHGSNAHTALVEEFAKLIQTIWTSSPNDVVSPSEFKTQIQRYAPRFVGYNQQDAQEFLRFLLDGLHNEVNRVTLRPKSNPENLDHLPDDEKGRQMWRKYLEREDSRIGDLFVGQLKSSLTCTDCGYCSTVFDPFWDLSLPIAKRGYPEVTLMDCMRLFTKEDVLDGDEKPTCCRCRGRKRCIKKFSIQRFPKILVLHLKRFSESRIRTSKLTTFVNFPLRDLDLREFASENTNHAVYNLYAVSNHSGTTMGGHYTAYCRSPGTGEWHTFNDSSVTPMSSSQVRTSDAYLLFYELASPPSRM

What follows are molecules tested against Ubiquitin carboxyl-terminal hydrolase 2 (Homo sapiens) (UniProt O75604) (assay: qHTS Assay for Inhibitors of Ubiquitin-specific Protease USP2a Using CHOP2 as the Reporter). Conditions: USP2 core, Ub-CHOP2 coupled fluorogenic reporter, 485/531; at 38.3 µM (top of the series).
Source text: NIH Molecular Libraries Screening Centers Network [MLSCN] NIH Chemical Genomics Center [NCGC] MLSCN Grant: XO1-MH079852-01 PI Name: Nicholson, Ben. Progenra Inc, Malvern, PA NCGC Assay Overview: Homeostasis of cellular proteins is maintained through a combination of synthesis and degradation. The pathway that accounts for the majority of protein degradation is the ubiquitin-proteasomal pathway. Ubiquitin (Ub) is highly conserved in all cells and the generation of a multi-Ub chain typically targets proteins for degradation by the proteasome. However, ubiquitination is highly reversible and dynamic. Deubiquitination, the reverse process, is catalyzed through the action of enzymes referred to as isopeptidases or deubiquitinating enzymes (DUBs). This group of enzymes is collectively responsible for maintaining adequate pools of free ubiquitin and regulating the ubiquitination status of cellular proteins. The class of DUBs referred to as the ubiquitin-specific proteases (USP) family functions endoproteolytically to cleave Ub chains from a wide range of protein substrates. USP2a deubiquitinates fatty acid synthase (FASN) which has recently been identified as an emerging oncology target. To identify inhibitors of USP2a a cell-free assay was employed. […] The reporter enzyme chosen is an enterokinase called CHOP2, which is activated when the Ub is cleaved by USP2. The free and now activated reporter can subsequently act on its reporter substrate. Thus, this coupled assay gives a fluorescent read-out at excitation/emission wavelengths of 485/531. The assay was developed by Progenra, Inc. and has been licensed for sale by LifeSensors, Inc. as Ub-CHOP2-Reporter-Kit (#PR1101).
NCGC Assay Protocol Summary: The assay buffer, prepared fresh at the day of the assay, contains 20mM Tris-HCl pH 8.0, 2mM CaCl2, 2mM beta-Mercaptoethanol, 0.05% CHAPS. 3ul of 20nM (10nM final) USP2 core, which is stored on ice, is dispensed into a medium-binding black solid Kalypsys 1,536 well plate using the Kalypsys dispenser. The assay plate is then pinned with 23nL compound with the Kalypsys pintool in columns 5-48. The controls are pinned as follows: column 1 two-fold dilutions of 2M NEM in duplicate; column 2 2M NEM (final concentration 38.2mM); column 3&4 DMSO. The assay plate is incubated at RT for 30min. Subsequently, 1.5uL of 100nM (25nM final) Ub-CHOP2 and 1.5uL of 100nM (25nM final) Reporter Substrate (both stored on ice and protected from light) were dispensed into the plate using the Kalypsys dispenser. Plates were read after 60min RT incubation on a ViewLux (Perkin Elmer) plate reader using the following wavelengths Ex 485nm /Em 531nm. Data were normalized to the to AC100 inhibition (NEM). Concentration-response curves were fitted to the normalized data and the concentration-response curves were then classified based on curve quality (r2), response magnitude and degree of measured activity. The time zero reading was used to flag fluorescence artifacts. Keywords: ubiquitination, deubiquitination, proteases, profluorescent, MLSMR, MLPCN, NIH Roadmap, qHTS, NCGC

Compound	activity change, negative = inhibition
COc1ccccc1OP(C)(=O)Nc1cccc(Br)c1 (stereo not given)	inactive: -1.91%
CCOC(=O)c1ccc(NP(C)(=O)Oc2cc(C)cc(C)c2)cc1 (stereo not given)	inactive: -0.427%
Cc1cc(C)cc(OP(C)(=O)Nc2ccc(C)cc2C)c1 (stereo not given)	inactive: 1.6%
Cc1ccc(C)c(NP(C)(=O)Oc2ccccc2)c1 (stereo not given)	inactive: 1.41%
CP(=O)(Nc1cccc(Br)c1)Oc1ccccc1 (stereo not given)	inactive: 0.0286%
Cc1cc(C)cc(OP(C)(=O)Nc2ccccn2)c1 (stereo not given)	inactive: 3.89%
CC1=NCCc2c1[nH]c1ccccc21.O=[N+]([O-])c1cc([N+](=O)[O-])c(O)c([N+](=O)[O-])c1	inactive: -1.84%
O=[N+]([O-])c1cc([N+](=O)[O-])c(Nc2nnnn2CCO)c([N+](=O)[O-])c1	inactive: -11.4%
CC1=C2N=C(C=C3N=C(C(C)=C4[N-][C@@](C)([C@@H]5N=C1[C@](C)(CCC(=O)NC[C@@H](C)OP(=O)([O-])O[C@H]1[C@@H](O)[C@@H](n6cnc7cc(C)c(C)cc76)O[C@@H]1CO)[C@H]5CC(N)=O)[C@@](C)(CC(N)=O)[C@@H]4CCC(N)=O)[C@@](C)(CC(N)=O)[C@@H]3CCC(N)=O)C(C)(C)[C@@H]2CCC(N)=O.[C-]#N.[Co+3]	inactive: 2.54%
CN1CCCCC1COC(=O)C1(O)c2ccccc2CCc2ccccc21 (stereo not given)	inactive: -1.28%
COc1ccccc1OP(C)(=O)Nc1c(C)cccc1C (stereo not given)	inactive: 1.08%
CP(=O)(Nc1ccc(SC(F)(F)F)cc1)Oc1ccccc1 (stereo not given)	inactive: -0.222%
CCCOc1ccc(NP(C)(=O)Oc2ccc(Cl)cc2)cc1 (stereo not given)	inactive: 4.42%
O=[N+]([O-])c1cc([N+](=O)[O-])c(-n2nnc3ccccc32)c([N+](=O)[O-])c1	inactive: 0.128%
Cc1nc2ccc3ccccc3c2s1.O=[N+]([O-])c1cc([N+](=O)[O-])c(O)c([N+](=O)[O-])c1	inactive: -1.75%
CP(=O)(Nc1ccc(SC(F)(F)F)cc1)Oc1ccc(Cl)cc1 (stereo not given)	inactive: -1.07%
Cc1cccc(C)c1OP(C)(=O)Nc1ccc(SC(F)(F)F)cc1 (stereo not given)	inactive: 0.5%
CP(=O)(Oc1ccccc1)OC(c1ccccc1)C(F)(F)F (stereo not given)	inactive: 11.4%
CCc1ccc(OP(C)(=O)N2CCN(c3ccc([N+](=O)[O-])cc3)CC2)cc1 (stereo not given)	inactive: 2.96%
CP(=O)(NC(=O)Nc1ccccc1)Oc1ccccc1 (stereo not given)	inactive: 2.82%
Cc1cc(C)cc(OP(C)(=O)Nc2ccc(SC(F)(F)F)cc2)c1 (stereo not given)	inactive: 5.15%
CCOC(=O)c1ccc(NP(C)(=O)Oc2ccc(OC)cc2)cc1 (stereo not given)	inactive: 0.441%
CCOP(C)(=S)SCC(=O)NC(C)C(=O)O (stereo not given)	inactive: 4.67%
CP(=S)(Nn1cnnc1)Oc1ccccc1 (stereo not given)	inactive: 3.68%
CP(=O)(Nc1ccccc1Br)Oc1ccccc1 (stereo not given)	inactive: 1.27%
COc1ccccc1OP(C)(=O)Nc1ccccc1 (stereo not given)	inactive: 0.0622%
O=[N+]([O-])c1cc([N+](=O)[O-])c(Nc2cccnc2)c([N+](=O)[O-])c1	inactive: -0.843%

Compound	activity change, negative = inhibition
O=[N+]([O-])c1ccc2c(c1)C=Nc1ccccc1O2	inactive: 0.881%
CC(C)(C)c1ccc(OP(C)(=O)Nc2ccc(SC(F)(F)F)cc2)cc1 (stereo not given)	inactive: -1.67%
Cc1cccc(C)c1OP(C)(N)=O (stereo not given)	inactive: 6.01%
COc1ccccc1OP(C)(=O)Nc1ccc(C)cc1 (stereo not given)	inactive: -0.415%
Cc1ccc(NP(C)(=O)Oc2ccccc2)c(C)c1 (stereo not given)	inactive: -6.21%
CCOC(=O)c1ccc(NP(C)(=O)Oc2ccccc2)cc1 (stereo not given)	inactive: -3.77%
Cc1cc(C)cc(OP(C)(N)=O)c1 (stereo not given)	inactive: 2.89%
COc1ccccc1OP(C)(=O)Nc1cc(Cl)ccc1C (stereo not given)	inactive: 0.383%
COc1ccc(OP(C)(=O)Nc2cccc(F)c2)cc1 (stereo not given)	inactive: 1.72%
CCN(CC)CCCOC(=O)C(O)(c1ccccc1)c1ccccc1	inactive: -0.362%
COc1ccccc1OP(C)(=O)Nc1ccc(Br)cc1 (stereo not given)	inactive: 1.13%
COc1ccc(OP(C)(=O)Nc2ccccn2)cc1 (stereo not given)	inactive: -1.9%
CN(C)CCOC(=O)C(O)(c1ccccc1)C1CCCC1 (stereo not given)	inactive: -1.17%
O=[N+]([O-])c1cc([N+](=O)[O-])c(Nc2ccccn2)c([N+](=O)[O-])c1	inactive: 5.6%
Cc1c(NP(C)(=O)Oc2ccc(C(C)C)cc2)c(=O)n(-c2ccccc2)n1C (stereo not given)	inactive: -1.38%
CP(=O)(Nc1ccccn1)Oc1ccccc1 (stereo not given)	inactive: -0.768%
COc1ccccc1OP(C)(=O)Nc1ccc(C)cc1C (stereo not given)	inactive: 1.49%
CCc1ccc(OP(C)(=O)O)cc1	inactive: 1.91%
Cc1cc(C)cc(OP(C)(=O)Nc2cccc(C(F)(F)F)c2)c1 (stereo not given)	inactive: 8.72%
COc1ccccc1OP(C)(=O)Nc1ccc(C)c(C)c1 (stereo not given)	inactive: 0.816%
COc1ccc(OP(C)(=O)Nc2ccccc2Br)cc1 (stereo not given)	inactive: 0.458%
Cc1nc2ccc3ccccc3c2o1.O=[N+]([O-])c1cc([N+](=O)[O-])c(O)c([N+](=O)[O-])c1	inactive: -5.07%
CP(=O)(OCCOc1ccccc1)OCCOc1ccccc1	inactive: 3.32%
CP(=O)(Nc1ccc(Cl)cc1Cl)Oc1ccccc1 (stereo not given)	inactive: 2.35%
CCOC(=O)c1ccc(NP(C)(=O)Oc2ccc(Cl)cc2)cc1 (stereo not given)	inactive: 2.1%
CP(=O)(OC12CC3CC(CC(C3)C1)C2)OC12CC3CC(CC(C3)C1)C2	inactive: -3.32%
CCN(CC)CC(O)COC(=O)C(O)(c1ccccc1)C1CCCCC1 (stereo not given)	inactive: -0.455%

Compound	activity change, negative = inhibition
COc1ccc(OP(C)(=O)Nc2ccc(Br)cc2)cc1 (stereo not given)	inactive: 0.14%
COc1ccccc1OP(C)(=O)Nc1c(C)n(C)n(-c2ccccc2)c1=O (stereo not given)	inactive: -0.0136%
O=C(OCCCN1CCCC1)C(O)(c1ccccc1)C1CCCCC1 (stereo not given)	inactive: -2.63%
CP(=O)(Oc1ccccc1)N1CCOC1=O (stereo not given)	inactive: 1.04%
CCc1ccc(OP(C)(=O)Nc2cccnc2)cc1 (stereo not given)	inactive: -0.99%
CC(C)(C)c1ccc(OP(C)(=O)O)cc1	inactive: 0.578%
COc1ccccc1OP(C)(=O)Nc1ccccc1Br (stereo not given)	inactive: 0.325%
CP(=O)(Nc1ccc(Cl)cc1)Oc1ccc(F)cc1 (stereo not given)	inactive: -1.29%
CN(C)C(=O)c1c([N+](=O)[O-])cc([N+](=O)[O-])cc1[N+](=O)[O-]	inactive: -5.19%
CP(=O)(Nc1ccc(SC(F)(F)F)cc1)Oc1ccc(F)cc1 (stereo not given)	inactive: 4.69%
CCOP(C)(=S)SCC(=O)NC(C)(CC)C(=O)O (stereo not given)	inactive: -0.0623%
CP(=O)(Nc1ccc2c(c1)OCCO2)Oc1ccccc1 (stereo not given)	inactive: -10.8%
Cc1ccccc1NP(C)(=O)Nc1ccccc1C	inactive: 1.32%
COc1ccc(OP(C)(=O)Nc2cccc(Br)c2)cc1 (stereo not given)	inactive: 2.56%
CN(C)CCOC(=O)C(O)(c1ccccc1)C1CCCCC1 (stereo not given)	inactive: 0.712%
COc1ccc(NP(C)(=O)Oc2ccccc2OC)cc1 (stereo not given)	inactive: 0.996%
O=[N+]([O-])c1ccc(OP2(=O)COCCO2)cc1 (stereo not given)	inactive: -1.07%
Cc1cc(-c2cccc3ccccc23)c(C)cn1.O=[N+]([O-])c1cc([N+](=O)[O-])c(O)c([N+](=O)[O-])c1	inactive: -1.01%
CCOC(=O)c1ccc(NP(C)(=O)Oc2ccc(F)cc2)cc1 (stereo not given)	inactive: 2.87%
COc1ccc(OP(C)(=O)Nc2ccc(SC(F)(F)F)cc2)cc1 (stereo not given)	inactive: -5.13%
CCN(CC)CCCOC(=O)C(O)(c1ccccc1)C1CCCCC1 (stereo not given)	inactive: 0.0281%
CP(=O)(Nc1ccccc1)Oc1ccc(F)cc1 (stereo not given)	inactive: -1.08%
CCCCCOc1ccc(NP(C)(=O)Oc2ccc(Cl)cc2Cl)cc1 (stereo not given)	inactive: -13.1%
CP(=O)(Nc1ccccc1F)Oc1ccccc1 (stereo not given)	inactive: -0.329%
CC(C)c1ccc(OP(C)(=O)Nc2ccc(SC(F)(F)F)cc2)cc1 (stereo not given)	inactive: -1.4%
O=C(OCCN1CCN(CCOCc2ccccc2)CC1)C(O)(c1ccccc1)c1ccccc1	inactive: 0.803%
